As a reminder, the Ki is a measure of affinity in units of concentration, obtained from inhibition or displacement.

This passage reports Ki results from ChEMBL document CHEMBL5247614, “An overview of aryl hydrocarbon receptor ligands in the Last two decades (2002-2022): A medicinal chemistry perspective” (Eur J Med Chem, 2022).

Each structure is given as a SMILES string.

The assay deals with T1, Aryl hydrocarbon receptor (Homo sapiens, UniProt P35869).
T1 sequence (P35869 whole entry): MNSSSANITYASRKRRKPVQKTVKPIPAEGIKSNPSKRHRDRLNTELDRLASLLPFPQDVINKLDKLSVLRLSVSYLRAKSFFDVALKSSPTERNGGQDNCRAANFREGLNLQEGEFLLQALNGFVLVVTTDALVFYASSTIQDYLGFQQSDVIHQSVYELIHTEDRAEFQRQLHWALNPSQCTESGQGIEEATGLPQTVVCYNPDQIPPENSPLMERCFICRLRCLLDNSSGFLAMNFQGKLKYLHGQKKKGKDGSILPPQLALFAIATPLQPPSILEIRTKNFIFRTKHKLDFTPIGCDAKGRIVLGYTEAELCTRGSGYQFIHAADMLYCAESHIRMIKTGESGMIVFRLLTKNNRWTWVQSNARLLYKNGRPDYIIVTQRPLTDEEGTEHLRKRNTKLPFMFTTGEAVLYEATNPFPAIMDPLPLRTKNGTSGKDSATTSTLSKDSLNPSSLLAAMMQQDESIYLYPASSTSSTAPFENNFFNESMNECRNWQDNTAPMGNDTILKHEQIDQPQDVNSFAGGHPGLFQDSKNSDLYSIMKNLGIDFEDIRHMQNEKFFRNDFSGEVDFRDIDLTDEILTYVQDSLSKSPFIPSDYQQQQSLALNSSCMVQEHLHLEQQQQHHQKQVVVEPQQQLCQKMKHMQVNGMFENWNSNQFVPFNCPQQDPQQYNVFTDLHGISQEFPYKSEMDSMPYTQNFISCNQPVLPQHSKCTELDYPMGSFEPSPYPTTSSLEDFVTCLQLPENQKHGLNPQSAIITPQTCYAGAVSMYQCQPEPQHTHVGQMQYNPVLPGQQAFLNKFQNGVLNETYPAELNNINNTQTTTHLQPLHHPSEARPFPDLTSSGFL

`FC(F)(F)c1ccc(/C=C/c2cc(Cl)cc(Cl)c2)cc1` came in with a Ki of 0.2 nM.
